Amino acid sequences for entries named in this document (tags omitted). Residues count along the entry.
UniProt P43220, 24-463: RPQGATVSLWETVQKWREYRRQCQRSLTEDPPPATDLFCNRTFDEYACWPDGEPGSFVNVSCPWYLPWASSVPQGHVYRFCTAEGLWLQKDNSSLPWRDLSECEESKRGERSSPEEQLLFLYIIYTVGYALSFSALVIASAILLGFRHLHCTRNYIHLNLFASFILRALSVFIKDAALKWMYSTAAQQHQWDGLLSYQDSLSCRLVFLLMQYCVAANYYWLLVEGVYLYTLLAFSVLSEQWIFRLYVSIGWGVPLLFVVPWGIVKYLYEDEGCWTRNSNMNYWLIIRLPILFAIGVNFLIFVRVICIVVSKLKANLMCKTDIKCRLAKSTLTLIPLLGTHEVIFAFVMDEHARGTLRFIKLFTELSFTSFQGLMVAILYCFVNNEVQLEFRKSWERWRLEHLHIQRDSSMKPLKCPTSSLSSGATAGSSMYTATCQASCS

According to US12729231B2, “Fusion protein having triple activity and use thereof” (SHANGHAI MINWEI BIOTECHNOLOGY CO., LTD, priority 2023, dated 2026):

Key:
human GLP-1 receptor = target: T1, human GLP-1 receptor (Homo sapiens, UniProt P43220); experiment: in vitro GLP-1 activity, CRE-luciferase reporter in CHO-K1 cells; type: cell-based; conditions: CHO-K1 cells expressing human GLP-1 receptor and CRE-luciferase, 5 hours incubation
T1 construct: expressed in transfected cells; host or cells: CHO-K1
Method: (§1) CHO-K1 cells expressing human GLP-1 receptor and CRE-luciferase were used to detect the in vitro GLP-1 activity of the fusion proteins. The cells were inoculated in a 96-well plate at a density of 30,000 cells/well/100 μL, and cultured at 5% CO2, 37° C. for 1 hour. For each protein sample to be tested, the protein solution was diluted 9 times with a 4-fold gradient with PBS containing 2% HAS starting from a certain concentration, so that 10 dilutions of each sample with different concentrations were obtained. 50 μL of each dilution was taken out and added into the 96-well plate inoculated with cells, and the 96-well plate was incubated at 5% CO2, 37° C. for 5 hours. The 96-well plate was taken out from the incubator and placed at room temperature for 10 minutes of equilibration, and 100 μL of reaction solution was added into each well. After the 96-well plate was shaken at 200 rpm for 10 minutes, the fluorescence reading of each well was detected by a multi-function microplate reader. Using the sample concentration as the abscissa and the fluorescence reading as the ordinate, a curve was drawn and the median effective concentration (EC50) of each sample was calculated.

human GIP receptor = target: T2, human GIP receptor (Homo sapiens, UniProt P48546); experiment: in vitro GIP activity, CRE-luciferase reporter in CHO-K1 cells; type: cell-based; conditions: CHO-K1 cells expressing human GIP receptor and CRE-luciferase, 5 hours incubation
T2 construct: expressed in transfected cells; host or cells: CHO-K1
T2 sequence (P48546 22-466): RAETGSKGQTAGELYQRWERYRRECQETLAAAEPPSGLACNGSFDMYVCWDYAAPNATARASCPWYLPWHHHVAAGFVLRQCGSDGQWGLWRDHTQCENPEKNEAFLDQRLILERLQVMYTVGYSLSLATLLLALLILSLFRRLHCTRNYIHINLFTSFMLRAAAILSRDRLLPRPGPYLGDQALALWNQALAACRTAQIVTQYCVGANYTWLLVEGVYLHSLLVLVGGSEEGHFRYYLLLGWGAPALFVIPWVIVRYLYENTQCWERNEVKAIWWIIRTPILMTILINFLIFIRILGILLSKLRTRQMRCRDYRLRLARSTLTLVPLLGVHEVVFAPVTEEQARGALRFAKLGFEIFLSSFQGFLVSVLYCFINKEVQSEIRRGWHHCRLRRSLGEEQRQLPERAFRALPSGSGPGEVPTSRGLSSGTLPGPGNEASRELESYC
Method: as §1, with “GIP” for “GLP-1”, “calculated. The activity of some of the selected fusion proteins is much higher than that of the control Tirzepatide.” for “calculated.”

Tirzepatide
EC50 (human GLP-1 receptor): 12.8 nM | EC50 (human GIP receptor): 0.059 nM
